Usually IC50 stands for the concentration that gives 50% inhibition. Read a low IC50 as greater potency.

Sequences of proteins named here, by UniProt entry; tags and fusion partners are left off. A change or cut given only in a name is not applied to a line headed by its entry.
UniProt P53341: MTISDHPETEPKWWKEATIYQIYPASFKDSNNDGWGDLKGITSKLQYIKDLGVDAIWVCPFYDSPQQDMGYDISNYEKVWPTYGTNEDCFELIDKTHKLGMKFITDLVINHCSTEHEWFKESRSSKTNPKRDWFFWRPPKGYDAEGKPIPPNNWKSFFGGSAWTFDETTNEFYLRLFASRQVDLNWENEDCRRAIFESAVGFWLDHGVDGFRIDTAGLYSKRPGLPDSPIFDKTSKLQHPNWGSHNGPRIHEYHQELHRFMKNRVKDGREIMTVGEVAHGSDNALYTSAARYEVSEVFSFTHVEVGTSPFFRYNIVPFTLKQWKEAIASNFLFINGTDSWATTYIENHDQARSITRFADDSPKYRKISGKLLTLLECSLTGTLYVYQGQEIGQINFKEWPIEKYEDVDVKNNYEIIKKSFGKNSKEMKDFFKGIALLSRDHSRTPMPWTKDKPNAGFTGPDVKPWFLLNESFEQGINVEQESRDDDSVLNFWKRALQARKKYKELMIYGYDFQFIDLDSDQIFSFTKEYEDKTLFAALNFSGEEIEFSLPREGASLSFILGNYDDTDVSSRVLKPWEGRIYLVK

For the assay, the target named is T1, α-glucosidase (Saccharomyces cerevisiae, UniProt P53341).
T1 construct: purchased Sigma-Aldrich (Shanghai, China) G5003-100UN
The assay can be described thus: α-glucosidase inhibitory assay (pNPG substrate, absorbance at 405 nm). It is filed as biochemical. The conditions noted are these: isolated compounds; acarbose positive control. The method, then: The α-glucosidase inhibitory activity of the S. grosvenorii root extracts was determined using a method mentioned previously, with some modifications to it. Briefly, the sample was dissolved in PBS containing 10% dimethyl sulfoxide. A mixture of the tested sample (50 μL, different concentrations) and α-glucosidase (20 μL, 0.2 U/mL) was placed in a 96-well microplate and incubated at 37 °C for 5 min. Next, 20 μL pNPG (1 mM) was added, and the mixture was further reacted for 30 min at 37 °C and terminated through the addition of […] solution (50 μL, […]). The percentage inhibition of α-glucosidase was determined by measuring the absorbance of the mixture at 405 nm and calculated by Equation (1):Inhibition (%) = [1 − (Ainhibitor − Ablank inhibitor)/(Acontrol − Acontrol blank)] × 100(1) where Ainhibitor, Ablank inhibitor, Acontrol, Acontrol blank are the absorbance values of the potential inhibitor and α-glucosidase, only the potential inhibitor without α-glucosidase, only α-glucosidase, and PBS buffer, respectively.

Cucurbitacin B [Compound 15] showed an IC50 of 1510 ± 57 µM.

The values above are taken from PMC10299727, “Identification and Isolation of α-Glucosidase Inhibitors from Siraitia grosvenorii Roots Using Bio-Affinity Ultrafiltration and Comprehensive Chromatography” (International Journal of Molecular Sciences, 2023).
